This is an account of results in patent US20260120837A1, “METHODS OF DOSING THERAPEUTIC AGENTS” (Fusion Pharmaceuticals Inc., priority 2022, published 2026).

For data set [1] the following is noted: cited from earlier work.
Data set [2] is described as follows: PK parameters and Ctrans, two-compartment model with nonlinear M-M clearance only (cetuximab, alemtuzumab). The class given is in vivo, human. Particulars: calculated by Equation (3). On the procedure:
For this kind of PK model, Ctrans is determined according to Equation (3): […]
PK parameters listed in Table 1, i.e., Vc, Vp, Q, VM and KM, were obtained based on the protocols disclosed in Dirks et al., 2008 and Mould et al., 2007, with modification to be consistent with the current model description provided herein.

With “Cetuximab: antibody; PK described by two-compartment model with nonlinear only clearance”, in data set [1] (M-M equation coefficient), the KM is on record as 74 (μg/mL) and the VM is on record as 4.38 (mg/hour). The Vc in data set [1] (central compartment distribution volume) is 2.83 (L). Besides, in data set [1] (exchange rate between compartments), the Q was 0.103 (L/hour) ^. The Vp in data set [1] (peripheral compartment distribution volume) is on record as 2.43 (L). Moreover, the Ctrans in data set [2] was 74 (μg/mL).
